Literature values as cited in patent US10851223B2, “Use of a cyclodextrin polycondensate or a composition comprising such a polycondensate, as a capturing agent” (BIOSTART, priority 2016, dated 2020).

Details: octanol/water

Log Kow: 2.45
Compound: NC(=O)N1c2ccccc2C=Cc2ccccc21 [Carbamazepine, reference compound]
